Test results as given in patent publication US10878939B2, “Methods and compositions for personalized pain management” (Children's Hospital Medical Center, priority 2014, dated 2020).

Key:
[1] = tested on: children undergoing tonsillectomy; assay: Respiratory depression and prolonged PACU stay due to RD by ABCB1 genotype (Example 7)
[2] = tested on: children undergoing tonsillectomy; assay: Opioid-related adverse effects and PACU stay by sex, age and morphine dose (Example 6)

CN1CC[C@]23c4c5ccc(O)c4O[C@H]2[C@@H](O)C=C[C@H]3[C@H]1C5 [morphine] was tested, and the RD % ([1]; Blacks, ABCB1 rs1045642 CC, N=27) was 22%, the RD % ([1]; Blacks, ABCB1 rs1045642 TC, N=14) was 43% and the RD % ([1]; Blacks, ABCB1 rs1045642 TT, N=3) was 33%. The RD % ([1]; Blacks, ABCB1 rs1128503 CC, N=24) was 21%, the RD % ([1]; Blacks, ABCB1 rs1128503 TC, N=18) was 39% and the RD % ([1]; Blacks, ABCB1 rs1128503 TT, N=2) was 50%. The RD % ([1]; Blacks, ABCB1 rs2032582 GA, N=1) was 0%, the RD % ([1]; Blacks, ABCB1 rs2032582 GG, N=35) was 26% and the RD % ([1]; Blacks, ABCB1 rs2032582 GT, N=8) was 50%. The RD % ([1]; Blacks, ABCB1 rs2229109 CA, N=1) was 0%, the RD % ([1]; Blacks, ABCB1 rs2229109 CC, N=43) was 30% and the RD % ([1]; Blacks, ABCB1 rs9282564 AA, N=41) was 27%. It also gave an RD % ([1]; Blacks, ABCB1 rs9282564 GA, N=3) of 67%, an RD % ([1]; Whites, ABCB1 rs1045642 CC, N=49) of 16% and an RD % ([1]; Whites, ABCB1 rs1045642 TC, N=100) of 19%. It also gave an RD % ([1]; Whites, ABCB1 rs1045642 TT, N=70) of 16%, an RD % ([1]; Whites, ABCB1 rs1128503 CC, N=70) of 23% and an RD % ([1]; Whites, ABCB1 rs1128503 TC, N=102) of 17%. It also gave an RD % ([1]; Whites, ABCB1 rs1128503 TT, N=47) of 11%, an RD % ([1]; Whites, ABCB1 rs2032582 GA, N=7) of 29% and an RD % ([1]; Whites, ABCB1 rs2032582 GG, N=65) of 20%. The RD % ([1]; Whites, ABCB1 rs2032582 GT, N=100) was 18%, the RD % ([1]; Whites, ABCB1 rs2032582 TA, N=1) was 0% and the RD % ([1]; Whites, ABCB1 rs2032582 TT, N=46) was 11%. The RD % ([1]; Whites, ABCB1 rs2229109 CA, N=14) was 36%, the RD % ([1]; Whites, ABCB1 rs2229109 CC, N=205) was 16% and the RD % ([1]; Whites, ABCB1 rs9282564 GA, N=46) was 17%. The RD % ([1]; Whites, ABCB1 rs9282564 GG, N=2) was 100%, the “RD, number of cases” value ([2]; F, All) was 20 and the “RD, number of cases” value ([2]; F, OSA Yes) was 11. The “RD, number of cases (%)” value ([2]; F, total morphine 0.2-<0.3 mg/kg) was 3 (6), the “RD, number of cases (%)” value ([2]; F, total morphine <0.2 mg/kg) was 5 (12) and the “RD, number of cases” value ([2]; M, All) was 18.
